This is an account of results in ChEMBL document CHEMBL3600302, “A Ligand-Based Drug Design. Discovery of 4-Trifluoromethyl-7,8-pyranocoumarin as a Selective Inhibitor of Human Cytochrome P450 1A2” (J Med Chem, 2015).

Chains of the proteins cited; added tags and fusions are not shown.
UniProt P05177, whole entry: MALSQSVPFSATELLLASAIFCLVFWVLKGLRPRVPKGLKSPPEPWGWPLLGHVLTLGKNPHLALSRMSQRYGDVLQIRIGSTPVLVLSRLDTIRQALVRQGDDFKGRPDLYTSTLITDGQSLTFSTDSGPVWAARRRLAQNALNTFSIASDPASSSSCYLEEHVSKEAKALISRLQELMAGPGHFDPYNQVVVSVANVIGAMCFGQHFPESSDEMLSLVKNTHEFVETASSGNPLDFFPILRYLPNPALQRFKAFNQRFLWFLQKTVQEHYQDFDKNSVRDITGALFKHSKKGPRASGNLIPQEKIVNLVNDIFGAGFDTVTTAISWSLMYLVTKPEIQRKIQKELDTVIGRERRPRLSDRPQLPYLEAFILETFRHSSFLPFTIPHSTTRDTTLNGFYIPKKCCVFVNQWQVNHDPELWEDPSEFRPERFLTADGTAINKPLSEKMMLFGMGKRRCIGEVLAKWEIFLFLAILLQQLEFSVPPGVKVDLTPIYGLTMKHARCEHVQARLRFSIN

Molecules are shown by their SMILES.

For this test, the target named is Cytochrome P450 1A2 (Homo sapiens, UniProt P05177). The experiment in a line: Inhibition of human microsomal CYP1A2-dependent methoxyresorufin-O-demethylase activity by spectrofluorimetric analysis in presence of NADPH regenerating solution. The gist of the method: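 Microsomal P450 (final 5 nM) in 0.1 M potassium phosphate pH 7.6 with MgCl2 at 37 °C. Substrate final 5 µM: ethoxyresorufin for 1A1/1B1, methoxyresorufin for 1A2. Ki was taken as the x-intercept of Dixon plots (1/v0 vs [I]). Mean ± SD of three independent experiments. Selectivity ratios are ratios of these Ki.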

As usually defined, the Ki is a measure of affinity in units of concentration, obtained from inhibition or displacement. On to `O=c1cc(-c2ccccc2)oc2c3c(ccc12)OCC=C3`, for which the Ki amounted to 58 nM.
